Assay [1] concerns MDA-MB-231 triple negative breast cancer cell line. As to the kind of experiment: Cytotoxicity in TTK-expressed MDA-MB-231 cells. The conditions noted are these: read-out: IC50 (nM) in MDA-MB-231, 5 days. The protocol:
To determine the cytotoxicity of a compound represented by Chemical Formula 1 according to the present invention to MDA-MB-231 cells, the following test was conducted.
MDA-MB-231 triple negative breast cancer cell line purchased from ATCC was inoculated into each well of a 96-well plate at a volume of 90 μL containing 2,000 cells. Thereafter, an example compound of the present invention was added to respective wells at concentrations of 10 μM, 3 μM, 1 μM, 0.3 μM, 0.1 μM, and 0 μM, and the cells were cultured in a cell incubator at 37° C. for 5 days. Five days later, 10 μL of Cyto X solution (manufacturer: LPS Solution) was added to each of the wells, and the absorbance was measured at 450 nm using an Epoch microplate spectrophotometer (manufacturer: BioTek Instruments Inc.) according to the product's user guide. For cytotoxicity, the IC50 value for cytotoxicity of each compound was calculated by quantifying the number of cells using the measured value.

The test system of assay [2] is HCT116 colon cancer cell line. The assay is described as follows: Cytotoxicity in TTK-expressed HCT116 cells. The settings on record: read-out: IC50 (nM) in HCT116, 5 days. As for the experimental part: To determine the cytotoxicity of a compound represented by Chemical Formula 1 according to the present invention to HCT116 cells, the following test was conducted.
HCT116 colon cancer cell line purchased from ATCC was inoculated into each well of a 96-well plate at a volume of 90 μL containing 2,000 cells. Thereafter, an example compound of the present invention was added to respective wells at concentrations of […], 3 μM, 1 μM, 0.3 μM, 0.1 μM, and 0 μM, and the cells were cultured in a cell incubator at 37° C. for 5 days. After 5 days, the number of cells was measured by CCK8 test method, and the cytotoxicity was determined by calculating the IC50 value for cytotoxicity of each compound.

On to `COc1cc(N2CCOCC2)ccc1Nc1nc(NC2CCN(C)CC2)c2c(-c3cnn(C)c3)n[nH]c2n1`, for which the IC50 in assay [1] is 500 to 1000 nM; in assay [2], greater than 1000 nM.

The values above are taken from patent publication US20250145625A1, “PYRAZOLOPYRIMIDINE DERIVATIVE AND ANTICANCER PHARMACEUTICAL COMPOSITION CONTAINING SAME AS ACTIVE INGREDIENT” (KOREA RESEARCH INSTITUTE OF CHEMICAL TECHNOLOGY, priority 2021, published 2025).
